Laboratory results taken from patent US7105573B2, “Methods and compositions for the treatment of alopecia and other disorders of the pilosebaceous apparatus” (Orentreich Foundation for the Advancement of Science, Inc., priority 2000, dated 2006).
Structures can show the parent of a compound that is named as a salt. Where two headings read alike, the source gives them in different places.

What was measured:
[1] = Percutaneous absorption / skin penetration of metformin; settings: basic solution, pH 13.0–13.5
[2] = in 50% SDA and 2% butylene glycol in water

| pH of solution [2] | pH of solution ([2]; hydrochloride) | Structure (SMILES) | skin penetration relative to the hydrochloride [1] | pH of solution ([2]; listed as metformin base) |
| --- | --- | --- | --- | --- |
| 6.5–7.0 | neutral pH | CN(C)C(=N)N=C(N)N [Metformin HCl, Metformin hydrochloride] | – | – |
| neutral pH | – | CN(C)C(=N)N=C(N)N.O=C(O)c1cc2ccccc2c(Cc2c(O)c(C(=O)O)cc3ccccc23)c1O [Metformin pamoate, metformin pamoate] | – | – |

| Structure (SMILES) | pH of solution [2] | pH of solution ([2]; hydrochloride) | skin penetration relative to the hydrochloride [1] | pH of solution ([2]; listed as metformin base) |
| --- | --- | --- | --- | --- |
| CN(C)C(=N)NC(=N)N [Metformin base] | 13 | – | penetrates the skin better than the hydrochloride | about 13 |
